## Membrane permeability of cyclic peptides

PAMPA is the parallel artificial membrane permeability assay, which has no cells and reads passive diffusion.
P is given in units of 10^-6 cm/s (from log10 values with two decimals); larger means faster passage.

SMILES,PAMPA (10^-6 cm/s)
CC(C)C[C@@H]1NC(=O)[C@H](C)NC(=O)[C@H]2CCCN2C(=O)[C@H](Cc2ccccc2)NC(=O)[C@@H](CC(C)C)N(C)C(=O)[C@@H]2CCCN2C(=O)[C@@H](CC(C)C)N(C)C1=O,0.79
CC(C)C[C@H]1C(=O)N[C@@H](Cc2ccccc2)CC(=O)N2CCC[C@@H]2C(=O)N(C)[C@@H](CC(C)C)C(=O)N[C@@H](Cc2ccccc2)C(=O)N2CCC[C@@H]2C(=O)N(C)[C@H](C)C(=O)N1C,1.2
CC(C)C[C@@H]1NC(=O)[C@@H](C)N(C)C(=O)[C@@H]2CCCN2C(=O)[C@H](Cc2ccccc2)NC(=O)CN(Cc2ccccc2)C(=O)[C@@H]2CCCN2C(=O)[C@H](CC(C)C)NC1=O,0.48
CCCN1CC(=O)N(Cc2ccccc2)CC(=O)N(C)[C@H](CC(C)C)C(=O)N2CCC[C@@H]2C(=O)N[C@H](CC(C)C)C(=O)N[C@@H](Cc2ccccc2)C(=O)N2CCC[C@H]2C1=O,0.54
CCCN1CC(=O)N[C@@H](CC(C)C)C(=O)N[C@@H](Cc2ccccc2)CC(=O)N2CCC[C@@H]2C(=O)N(C)[C@@H](CC(C)C)C(=O)N[C@@H](Cc2ccccc2)C(=O)N2CCC[C@H]2C1=O,2
CC(C)C[C@@H]1C(=O)N(C)[C@@H](CC(C)C)C(=O)N2CCC[C@@H]2C(=O)N(C)[C@@H](CC(C)C)C(=O)N[C@@H](Cc2ccccc2)C(=O)N2CCC[C@@H]2C(=O)N[C@@H](C)C(=O)N1C,12
CCCN1CC(=O)N[C@@H](CC(C)C)C(=O)N[C@@H](CC(C)C)C(=O)N2CCC[C@H]2C(=O)N[C@@H](CC(C)C)C(=O)N[C@@H](Cc2ccccc2)C(=O)N2CCC[C@H]2C1=O,1
CCCN1CC(=O)N(C)[C@@H](CC(C)C)C(=O)N[C@@H](CC(C)C)C(=O)N2CCC[C@H]2C(=O)N[C@H](CC(C)C)C(=O)N[C@@H](Cc2ccccc2)C(=O)N2CCC[C@H]2C1=O,2.4
CC(C)C[C@@H]1C(=O)N(C)[C@H](CC(C)C)C(=O)N2CCC[C@@H]2C(=O)N(C)[C@H](CC(C)C)C(=O)N[C@@H](Cc2ccccc2)C(=O)N2CCC[C@H]2C(=O)N(C)[C@H](C)C(=O)N1C,7.2
CC(C)C[C@@H]1C(=O)N2CCC[C@H]2C(=O)N(C)[C@@H](CC(C)C)C(=O)N[C@@H](Cc2ccccc2)C(=O)N2CCC[C@@H]2C(=O)N(C)[C@@H](C)C(=O)N(C)[C@@H](CC(C)C)C(=O)N1C,13
CC(C)C[C@@H]1NC(=O)[C@@H]2CCCN2C(=O)[C@@H](CC(C)C)NC(=O)[C@@H](CC(C)C)NC(=O)[C@H](C)NC(=O)[C@H](Cc2ccccc2)NC1=O,0.35
CC(C)C[C@@H]1NC(=O)[C@@H](C)N(C)C(=O)[C@H]2CCCN2C(=O)[C@H](Cc2ccccc2)NC(=O)[C@@H](CC(C)C)N(C)C(=O)[C@@H]2CCCN2C(=O)[C@@H](CC(C)C)NC1=O,2.3
CCCN1CC(=O)N[C@@H](CC(C)C)C(=O)N(Cc2ccccc2)CC(=O)N2CCC[C@@H]2C(=O)N[C@H](CC(C)C)C(=O)N[C@@H](Cc2ccccc2)C1=O,0.78
CC(C)C[C@@H]1NC(=O)[C@@H](C)NC(=O)[C@H]2CCCN2C(=O)[C@H](Cc2ccccc2)NC(=O)CN(Cc2ccccc2)C(=O)[C@@H]2CCCN2C(=O)[C@H](CC(C)C)NC1=O,0.4
CC(C)C[C@@H]1C(=O)N[C@@H](Cc2ccccc2)C(=O)N[C@@H](Cc2ccccc2)CC(=O)N(C)[C@@H](CC(C)C)C(=O)N(Cc2ccccc2)CC(=O)N2CCC[C@@H]2C(=O)N1C,3.9
CC(C)C[C@@H]1C(=O)N(C)[C@H](CC(C)C)C(=O)N2CCC[C@H]2C(=O)N[C@H](CC(C)C)C(=O)N[C@@H](Cc2ccccc2)C(=O)N(C)[C@H](C)C(=O)N1C,15
CC(C)C[C@H]1C(=O)N(Cc2ccccc2)CC(=O)N2CCC[C@@H]2C(=O)N(Cc2ccccc2)CC(=O)N[C@@H](Cc2ccccc2)C(=O)N2CCC[C@@H]2C(=O)N(C)[C@H](C)C(=O)N1C,1.3
CC(C)C[C@@H]1NC(=O)[C@H]2CCCN2C(=O)[C@H](CC(C)C)NC(=O)[C@H](CC(C)C)N(C)C(=O)C[C@H](Cc2ccccc2)NC(=O)[C@H](Cc2ccccc2)NC1=O,4.1
CC(C)C[C@@H]1NC(=O)[C@@H](C)NC(=O)[C@H](Cc2ccccc2)NC(=O)[C@@H](CC(C)C)N(C)C(=O)[C@H]2CCCN2C(=O)[C@@H](CC(C)C)NC1=O,1.4
CC(C)C[C@H]1C(=O)N[C@@H](Cc2ccccc2)C(=O)N2CCC[C@H]2C(=O)N[C@@H](Cc2ccccc2)CC(=O)N(Cc2ccccc2)CC(=O)N[C@@H](Cc2ccccc2)CC(=O)N2CCC[C@@H]2C(=O)N1C,1.9
CC(C)C[C@@H]1C(=O)N[C@@H](Cc2ccccc2)C(=O)N2CCC[C@H]2C(=O)N(C)[C@H](C)C(=O)N(Cc2ccccc2)CC(=O)N[C@@H](Cc2ccccc2)CC(=O)N2CCC[C@@H]2C(=O)N1C,1.4

Repeated from above, the 3 entries with the highest PAMPA:

SMILES,PAMPA (10^-6 cm/s)
CC(C)C[C@@H]1C(=O)N(C)[C@H](CC(C)C)C(=O)N2CCC[C@H]2C(=O)N[C@H](CC(C)C)C(=O)N[C@@H](Cc2ccccc2)C(=O)N(C)[C@H](C)C(=O)N1C,15
CC(C)C[C@@H]1C(=O)N2CCC[C@H]2C(=O)N(C)[C@@H](CC(C)C)C(=O)N[C@@H](Cc2ccccc2)C(=O)N2CCC[C@@H]2C(=O)N(C)[C@@H](C)C(=O)N(C)[C@@H](CC(C)C)C(=O)N1C,13
CC(C)C[C@@H]1C(=O)N(C)[C@@H](CC(C)C)C(=O)N2CCC[C@@H]2C(=O)N(C)[C@@H](CC(C)C)C(=O)N[C@@H](Cc2ccccc2)C(=O)N2CCC[C@@H]2C(=O)N[C@@H](C)C(=O)N1C,12

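Conditions beyond the assay type are not listed; see the original paper. The list need not hold all peptides of the study. Entries at the database's floor value (log10 P of -10) are not listed.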

Collected by the curators of CycPeptMPDB (Li et al. 2023) from Townsend et al. 2020, doi:10.26434/chemrxiv.13335941.v1.